Measurements reported in patent publication US20140287989A1 (CENTRE NATIONAL DE LA RECHERCHE SCIENTIFIQUE, published 2014).

Amino acid sequences for entries named in this document (tags omitted). A change or cut given only in a name is not applied to a line headed by its entry.
UniProt P0A988: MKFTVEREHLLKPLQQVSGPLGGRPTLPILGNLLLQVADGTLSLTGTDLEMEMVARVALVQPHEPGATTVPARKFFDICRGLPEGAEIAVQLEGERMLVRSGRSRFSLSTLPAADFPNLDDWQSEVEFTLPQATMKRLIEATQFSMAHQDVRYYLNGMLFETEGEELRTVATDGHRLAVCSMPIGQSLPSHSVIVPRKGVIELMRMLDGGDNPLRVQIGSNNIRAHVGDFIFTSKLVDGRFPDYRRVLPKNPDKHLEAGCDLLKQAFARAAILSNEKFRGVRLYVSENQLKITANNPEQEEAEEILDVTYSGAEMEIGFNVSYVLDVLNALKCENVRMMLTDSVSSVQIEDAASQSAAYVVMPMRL

B1: E. coli DNA polymerase IV (enzyme)
chain: MRKIIHVDMDCFFAAVEMRDNPALRDIPIAIGGSRERRGVISTANYPARKFGVRSAMPTGMALKLCPHLTLLPGRFDAYKEASNHIREIFSRYTSRIEPLSLDEAYLDVTDSVHCHGSATLIAQEIRQTIFNELQLTASAGVAPVKFLAKIASDMNKPNGQFVITPAEVPAFLQTLPLAKIPGVGKVSAAKLEAMGLRTCGDVQKCDLVMLLKRFGKFGRILWERSQGIDERDVNSERLRKSVGVERTMAEDIHHWSECEAIIERLYPELERRLAKVKPDLLIARQGVKLKFDDFQQTTQEHVWPRLNKADLIATARKTWDERRGGRGVRLVGLHVTLLDPQMERQLVLGL
notes: Called the whole polymerase / the full PolIV enzyme; construct and tags not described; also called PolIV; Pol IV
B2: E. coli DNA polymerase IV (enzyme)
chain: MRKIIHVDMDCFFAAVEMRDNPALRDIPIAIGGSRERRGVISTANYPARKFGVRSAMPTGMALKLCPHLTLLPGRFDAYKEASNHIREIFSRYTSRIEPLSLDEAYLDVTDSVHCHGSATLIAQEIRQTIFNELQLTASAGVAPVKFLAKIASDMNKPNGQFVITPAEVPAFLQTLPLAKIPGVGKVSAAKLEAMGLRTCGDVQKCDLVMLLKRFGKFGRILWERSQGIDERDVNSERLRKSVGVERTMAEDIHHWSECEAIIERLYPELERRLAKVKPDLLIARQGVKLKFDDFQQTTQEHVWPRLNKADLIATARKTWDERRGGRGVRLVGLHVTLLDPQMERQLVLGL
notes: also called PolIV; Pol IV

Tests used:
[1] = biological target: T1, E. coli β clamp (β subunit of DNA polymerase III, dnaN gene product), N-tagged (E. coli, UniProt P0A988 1-366); test: SPR competition (Biacore 3000): β ring 0.25 µM mixed with the challenger, injected on immobilised P1
T1 construct: The dnaN gene was cloned in pET15b and expressed in BL21 E. coli; also called β ring; β protein; not shown: N-terminal tag from the pET15b vector (N-tagged protein, enriched on Ni-NTA)

[2] = biological target: T2, E. coli β clamp (β subunit of DNA polymerase III, dnaN gene product) (E. coli, UniProt P0A988 1-366); test: SPR competition: challenger with β ring injected on immobilized P1
T2 construct: Homodimeric ring; N-tagged protein expressed in BL21 E. coli and purified on Ni-NTA and MonoQ; also called β ring; β protein; not shown: N-terminal tag from the pET15b plasmid

Binder | IC50 [1] [nM] | IC50 [2] [nM]
B1 | 290 | 
B2 |  | 290
